Test results: patent US8741915B2, “Dihydropyrimidin-2(1H)-one compounds as S-nitrosoglutathione reductase inhibitors” (N30 Pharmaceuticals, Inc., priority 2009, dated 2014)

Protein sequences, listed by entry. Tags and fused reporters are not part of them. Lines headed by an entry give the natural chain unless they say otherwise; changes in a name come on top.
UniProt P11766: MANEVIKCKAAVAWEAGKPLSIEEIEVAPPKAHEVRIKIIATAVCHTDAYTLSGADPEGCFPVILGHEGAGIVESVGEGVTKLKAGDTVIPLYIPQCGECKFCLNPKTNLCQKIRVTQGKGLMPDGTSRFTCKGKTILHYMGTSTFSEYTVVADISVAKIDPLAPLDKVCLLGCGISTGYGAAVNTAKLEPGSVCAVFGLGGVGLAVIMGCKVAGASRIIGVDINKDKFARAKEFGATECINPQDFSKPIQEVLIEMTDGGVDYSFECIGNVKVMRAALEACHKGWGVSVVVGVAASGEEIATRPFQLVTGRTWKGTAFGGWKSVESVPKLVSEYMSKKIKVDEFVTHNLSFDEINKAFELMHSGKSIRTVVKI

Target: GSNOR (Homo sapiens (Human), UniProt P11766)
Experiment: GSNOR assay (inhibition of GSNOR activity in vitro, change in 340 nm absorbance with GSNO/NADH)
[1] = GSNOR IC50, Table 1, racemates and separated enantiomers

| SMILES | pIC50 [1] | pIC50 (IC50, upper bound (about <)) |
| --- | --- | --- |
| CCOc1cc(C2NC(=O)NC(c3ccccc3)=C2c2ccccc2)cc([N+](=O)[O-])c1O (racemic) [Example 1, 4-(3-ethoxy-4-hydroxy-5-nitrophenyl)-5,6-diphenyl-3,4-dihydropyrimidin-2(1H)-one] | 7.54 | > 7.00 |
| CCOc1cc(C2NC(=O)NC(c3ccccc3)=C2c2ccsc2)cc([N+](=O)[O-])c1O (racemic) [Example 5, 4-(3-ethoxy-4-hydroxy-5-nitrophenyl)-6-phenyl-5-(thiophen-3-yl)-3,4-dihydropyrimidin-2(1H)-one] | 7.72 |  |
| CCOc1cc(C2NC(=O)NC(c3cccnc3)=C2c2ccsc2)cc([N+](=O)[O-])c1O (racemic) [Example 116, 4-(3-ethoxy-4-hydroxy-5-nitrophenyl)-6-(pyridin-3-yl)-5-(thiophen-3-yl)-3,4-dihydropyrimidin-2(1H)-one] | 7.62 |  |
| CCOc1cc(C2NC(=O)NC(c3ccn(C)n3)=C2c2ccsc2)cc([N+](=O)[O-])c1O (racemic) [Example 119, 4-(3-ethoxy-4-hydroxy-5-nitrophenyl)-6-(1-methyl-1H-pyrazol-3-yl)-5-(thiophen-3-yl)-3,4-dihydropyrimidin-2(1H)-one] | 7.40 |  |
| CCOc1cc([C@@H]2NC(=O)NC(c3ccccc3)=C2c2ccccc2)cc([N+](=O)[O-])c1O [Example 2, (S)-4-(3-ethoxy-4-hydroxy-5-nitrophenyl)-5,6-diphenyl-3,4-dihydropyrimidin-2(1H)-one] | 7.96 | > 7.00 |
| CCOc1cc([C@H]2NC(=O)NC(c3ccccc3)=C2c2ccccc2)cc([N+](=O)[O-])c1O [Example 3, (R)-4-(3-ethoxy-4-hydroxy-5-nitrophenyl)-5,6-diphenyl-3,4-dihydropyrimidin-2(1H)-one] | 4.71 |  |
| CCOc1cc([C@H]2NC(=O)NC(c3ccccc3)=C2c2ccsc2)cc([N+](=O)[O-])c1O [Example 7, (R)-4-(3-ethoxy-4-hydroxy-5-nitrophenyl)-6-phenyl-5-(thiophen-3-yl)-3,4-dihydropyrimidin-2(1H)-one] | 5.74 |  |
| CCOc1cc([C@@H]2NC(=O)NC(c3cccnc3)=C2c2ccsc2)cc([N+](=O)[O-])c1O [Example 143, (S)-4-(3-ethoxy-4-hydroxy-5-nitrophenyl)-6-(pyridin-3-yl)-5-(thiophen-3-yl)-3,4-dihydropyrimidin-2(1H)-one] | 7.80 |  |
| CCOc1cc([C@H]2NC(=O)NC(c3cccnc3)=C2c2ccsc2)cc([N+](=O)[O-])c1O [Example 144, (R)-4-(3-ethoxy-4-hydroxy-5-nitrophenyl)-6-(pyridin-3-yl)-5-(thiophen-3-yl)-3,4-dihydropyrimidin-2(1H)-one] | 5.72 |  |
| CCOc1cc([C@H]2NC(=O)NC(c3ccn(C)n3)=C2c2ccsc2)cc([N+](=O)[O-])c1O [Example 149, (R)-4-(3-ethoxy-4-hydroxy-5-nitrophenyl)-6-(1-methyl-1H-pyrazol-3-yl)-5-(thiophen-3-yl)-3,4-dihydropyrimidin-2(1H)-one] | 4.51 |  |

pIC50: −log10 of the molar value.
